Several values for one entry are separate records, joined by “and”; a condition that tells them apart may be missing. Equal entries are not always repeated.
Experiments:
NOPr [1] = biological target: T1, NOPr (Homo sapiens, UniProt P41146); test: TR-FRET saturation binding of 13h in Na+/Gpp(NH)p or NMDG buffer
Procedure: To investigate the effect of Na^+ and guanine nucleotides on competition binding experiments, as discussed in Section , we decided to perform competition binding experiments in the presence (Figure a) and absence (Figure b) of 100 mM Na^+ ions, which are known to be a negative allosteric modulator of many GPCRs , and a nonhydrolyzable form of guanine triphosphate, Gpp(NH)p (100 mM). To maintain an equivalent ionic strength in the Na^+ free condition, 100 mM of the organic cation N-methyl-D-glucamine (NMDG) was included in the buffer.
Saturation and competition binding experiments were performed as previously described using different buffer conditions. In the sodium and Gpp(NH)-p, free condition experiments were carried out in buffer containing (20 mM HEPES, 100 mM NMDG, 6 mM MgCl2, 1 mM EGTA, and 1 mM EDTA, pH 7.4) and in the sodium and Gpp(NH)-p containing condition buffer containing (20 mM HEPES, 100 mM NaCl, 6 mM MgCl2, 1 mM EGTA, and 1 mM EDTA, pH 7.4) with 100 μM Gpp(NH)-p. […] For saturation experiments, increasing concentrations of 13h (0–400 nM) were used.
Gpp(NH)p (100 µM) + NMDG (100 mM) […]
Figure S4. TR-FRET saturation binding experiments to characterize the afKinity of Kluorescent ligand 13h in
buffers containing a) 100 mM Na+ and 100 mM Gpp(NH)p or b) 100 mM NMDG. The binding of increasing
concentrations of 13h (0-400 nM) to Lumi4-Tb SNAP-NOPr-CHO membranes in the presence (non-speciRic)(black
circle) and absence (total-binding) (hollow circle) of SB612111 was assessed after 2 hrs at 37° C. The homogenous
TR-FRET (HTRF) ratio ((acceptor lem (665 nM) /donor lem (620 nM) ´ 10000) is plotted against ligand
concentration (nM) for each condition. SpeciRic binding curves (total - non-speciRic) (black circle) are shown for 13h
in both c) Na+ and Gpp(NH)p and d) NMDG condition. All data represent the mean ± SEM of n=3 experiments
mean ± SEM of n=3 eperiments performed in duplicate.
+ Na+ and Gpp(NH)p + NMDG

By UniProt entry, the sequences of proteins in these tests, tags left out. Where a name states a change or a piece, a line headed by the entry shows the natural chain unless it says otherwise.
UniProt P41146: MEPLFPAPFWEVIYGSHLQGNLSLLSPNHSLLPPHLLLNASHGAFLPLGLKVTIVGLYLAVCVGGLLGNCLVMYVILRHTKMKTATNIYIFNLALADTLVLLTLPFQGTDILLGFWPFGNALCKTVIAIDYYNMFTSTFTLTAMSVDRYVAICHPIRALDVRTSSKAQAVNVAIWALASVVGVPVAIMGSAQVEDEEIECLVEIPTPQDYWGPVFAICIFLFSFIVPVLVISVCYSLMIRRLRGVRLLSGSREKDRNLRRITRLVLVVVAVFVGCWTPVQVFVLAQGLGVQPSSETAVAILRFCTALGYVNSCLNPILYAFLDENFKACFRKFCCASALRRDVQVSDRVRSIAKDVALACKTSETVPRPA

NOPr [2] = biological target: T1, NOPr; test: TR-FRET equilibrium saturation binding, Lumi4Tb-SNAP-NOPr CHO membranes
Procedure: The levels of specific binding (total – nonspecific) were calculated and used to determine the dissociation constant (K D) as a measure of affinity. Specific binding curves are shown in Supporting Figure S2. […] Nonetheless, both ligand high affinity and low background signal are promising properties for fluorescence-based studies at the NOPr, enabling low concentrations to be used and improving signal-to-noise ratio. To further investigate the binding characteristics 13g-h, kinetic studies were carried out.
(§1) For 13g-h, the homogeneous TR-FRET (HTRF) ratio [(acceptor λem (665 nM)/donor λem (620 nM) × 10000)] is plotted against ligand concentration (nM) for the total binding (solid circle) and nonspecific binding (NSB) (hollow circle). Kinetic binding of (c) 13g and (d) 13h to Lumi4-Tb SNAP-NOPr-CHO membranes was measured over 15 min to determine the NOPr Ligand kinetic parameters in Table . For each concentration applied (0–50 nM), the specific labeling (total-NSB) HTRF ratio × 10,000 is plotted against time (minutes). For end point saturation binding assays, data represent the mean ± SEM of n = 3 experiments performed in duplicate, and for kinetic binding studies, all data represent the mean of n = 3 experiments.
All ligands were prepared in TR-FRET buffer, consisting of Hanks’ Balanced Salt Solution (Sigma-Aldrich H6648) (KCl 5 mM, KH2PO4 0.4 mM, NaHCO3 4 mM, NaCl 137 mM, Na2HPO4 0.3 mM), Pluronic-F127 (0.02% w/v), DMSO (1% v/v), and glucose (1 mg.mL^–1), adjusted to pH 7.4. Membrane aliquots were thawed on ice prior to use, and membrane suspensions [membrane (0.05 μg.μL^–1), Gpp(NH)p (100 μM), and saponin (50 μg.mL^–1)] were prepared in TR-FRET buffer. To ensure homogeneity, the membrane suspension was passed through a 27-gauge needle before use. Measurements were made in low-binding 384-well optiplates (PerkinElmer) on a PHERAstar (BMG Labtech) plate reader using the HTRF module [337 nm excitation with dual emission detection at 620 nm (terbium cryptate donor) and 665 nm emission (fluorescent ligand acceptor)] at a focal height of 11.4 mm. Integration was started 60 μs post irradiation (4 flashes/well) for 400 μs, all saturation and competition binding experiments were carried out in duplicate wells, and data were reported as the mean HTRF ratio ((acceptoremission/donoremission)×10,000) from 3 repeat measurements ±SEM. Kinetic binding experiments were performed in singlet wells, and the data represent the mean of n = 3 experiments ±SEM.
Membrane solution (20 μL) was added, and the measurement was taken after a 2 h incubation at 37 °C. All data were converted to specific binding (total – nonspecific) and fitted using eq to determine K D. 2 HTRFratio×10,000=Bmax[FL]/(KD+[FL])

NOPr [3] = biological target: T1, NOPr; test: TR-FRET kinetic binding, Lumi4-Tb-SNAP-NOPr-CHO membranes; details: kinetically derived, 15 min, n = 3
Procedure: as §1, with “experiments. […]” for “experiments.”
All ligands were prepared in TR-FRET buffer, consisting of Hanks’ Balanced Salt Solution (Sigma-Aldrich H6648) (KCl 5 mM, KH2PO4 0.4 mM, NaHCO3 4 mM, NaCl 137 mM, Na2HPO4 0.3 mM), Pluronic-F127 (0.02% w/v), DMSO (1% v/v), and glucose (1 mg.mL^–1), adjusted to pH 7.4. […] Measurements were made in low-binding 384-well optiplates (PerkinElmer) on a PHERAstar (BMG Labtech) plate reader using the HTRF module [337 nm excitation with dual emission detection at 620 nm (terbium cryptate donor) and 665 nm emission (fluorescent ligand acceptor)] at a focal height of 11.4 mm. […]

NOPr [4] = biological target: T1, NOPr; test: BRET G-protein activation (GPA) assay, Gαi2, agonist and antagonist mode, Flp-In-NOPr-CHO cells; format: cell-based
Procedure: The functional activity of congeners 11a-h was assessed in a bioluminescence resonance energy transfer (BRET) assay measuring NOPr activation of the Gαi2 G protein through release of Gβγ subunits in Flp-In-NOPr-Chinese hamster ovary (CHO) cells, as summarized in Figure a. The purpose of this assay was to determine whether the affinity and antagonist profile were retained after chemical modification of C24. To confirm an antagonist profile, we measured the ability of increasing concentrations of 11a-h (1 pM to 10 μM), 13g-h, and 14h (1 pM to 1 mM) to either stimulate Gai2 activation or to inhibit the action of an EC80 concentration of N/OFQ. Inhibition data were used to derive inhibitory potency (pIC50) values (Table ), which are indicative of the relative affinities of the various congeners.
2 G-protein activation (GPA) assay and corresponding NOPr ligand concentration–response curves for N-Boc-C24-congener (11a-h) and fluorescent-ligands (13g-h and 14h). Data represent the mean ± SEM of n = 4 experiments performed in duplicate. (a) Illustrative representation of the GPA assay–ligand-induced receptor activation causes G protein dissociation, releasing a Venus-tagged Gβγ (acceptor) to interact with a membrane-localized c-terminus of G protein-coupled receptor kinase 3 (masGRK3ct) fused to a renilla luciferase enzyme (RLuc8) (donor). In this assay, 11a-h (10 μM to 1 pM), 13g-h, and 14h (1 μM to 1 pM) were assessed in agonist mode; NOPr ligands in the absence of the competing agonist N/OFQ and, antagonist mode; NOPr ligands in the presence of a EC80 concentration of N/OFQ. After a 10 min incubation with the R-Luc substrate coelenterazine and NOPr ligands, luminescence was measured to quantify GPA as a BRET ratio between acceptor λem 535 nm/donor λem 475 nm. Concentration–response curves (b–e) showing GPA by NOPr ligands as a percentage of the maximal response to the endogenous agonist are shown for 11a-h in (b) agonist mode and (c) antagonist mode, and 13g-h and 14h in (d) agonist mode and (e) antagonist mode.
Flp-In CHO cells stably expressing SNAP-NOPr were transiently transfected with Gαi2 (2 μg), Gβ1-Venus (156–259)(1 μg), Gγ2-Venus(1–155)(1 μg), and masGRK3ct-RLuc8 (1 μg) using polyethylenimine (PEI) in a 1:6 DNA/PEI ratio. […]
Cells were then incubated with coelenterazine H (NanoLight Technology) (10 μL/well, 50 μM, 5 min, RT) before ligands were added to the 96-well plate with final ligand concentrations ranging from (10 μM-0.01 nM). […] Cells were incubated in the plate reader, and luminescence was read using dual emission detection at 475 nm (Rluc8 Donor) and 535 nm emission (BRET signal) at 10 and 30 min. Plates were read on a PHERAstar (BMG Lab Tech), and data were exported through MARS and analyzed using Prism (GraphPad, Version 10). […]

With `CN1/C(=C/C=C/C=C/C2=[N+](CCCCCC(=O)NCCOc3ccc(CN4CCC[C@@H]4C(=O)NCCCN4CCC5(CC4)OCc4ccccc45)cc3)c3ccc(S(=O)(=O)[O-])cc3C2(C)C)C(C)(C)c2cc(S(=O)(=O)[O-])ccc21.[K+]` [13h, Potassium 1-(6-((2-(4-(((R)-2-((3-(3H-Spiro[isobenzofuran-1,4′-piperidin]-1′-yl)propyl)carbamoyl)pyrrolidin-1-yl)methyl)phenoxy)ethyl)amino)-6-oxohexyl)-3,3-dimethyl-2-((1E,3E)-5-((E)-1,3,3-trimethyl-5-sulfonatoindolin-2-ylidene)penta-1,3-dien-1-yl)-3H-indol-1-ium-5-sulfonate] the Kd (NOPr [1]; 100 mM NMDG, read-out: Saturation KD, + NMDG) was 17.1 nM and 17 nM, the Kd (NOPr [1]; 100 mM NMDG, read-out: Saturation pKD, + NMDG (converted)) was 17 nM and the Kd (NOPr [1]; 100 mM Na+, 100 μM Gpp(NH)p, read-out: Saturation KD, + Na+ and Gpp(NH)p) was 8.3 nM. It also gave a Kd (NOPr [1]; 100 mM Na+, 100 μM Gpp(NH)p, read-out: Saturation pKD, + Na+ and Gpp(NH)p (converted)) of 8.32 nM, a Kd (NOPr [2]; 2 h, 37 °C, n = 3, read-out: saturation KD (converted)) of 5.6 nM and a Kd (NOPr [2]; 2 h, 37 °C, n = 3, read-out: saturation pKD (converted)) of 5.01 nM. It also gave a Kd (NOPr [2]; Table 3, equilibrium saturation binding, read-out: KD NOPr (converted)) of 5.6 nM, a Kd (NOPr [2]; Table 3, equilibrium saturation binding, read-out: pKD ± SEM NOPr (converted)) of 5.01 nM and a Kd (NOPr [3]; read-out: kinetic KD (converted)) of 6 nM. For the same molecule, the Kd (NOPr [3]; read-out: kinetic pKD (converted)) was 5.75 nM, the IC50 (NOPr [4]; IC50, antagonist mode, inhibition of EC80 concentration of N/OFQ, n = 4 in duplicate) was 120 nM and the IC50 (NOPr [4]; NOP IC50 (nM), supplementary csv, GPA assay antagonist mode) was 117 nM. The IC50 (NOPr [4]; NOP pIC50 ± SEM, supplementary csv, GPA assay antagonist mode) was 117 nM and the IC50 (NOPr [4]; pIC50 ± SEM, antagonist mode, inhibition of EC80 concentration of N/OFQ, n = 4 in duplicate) was 126 nM.
